For orientation: IC50 means the point on the concentration scale where inhibition reaches its midpoint.

Amino acid sequences for entries named in this document (tags omitted). Residues count along the entry.
UniProt P05106, 27-788 limits assumed: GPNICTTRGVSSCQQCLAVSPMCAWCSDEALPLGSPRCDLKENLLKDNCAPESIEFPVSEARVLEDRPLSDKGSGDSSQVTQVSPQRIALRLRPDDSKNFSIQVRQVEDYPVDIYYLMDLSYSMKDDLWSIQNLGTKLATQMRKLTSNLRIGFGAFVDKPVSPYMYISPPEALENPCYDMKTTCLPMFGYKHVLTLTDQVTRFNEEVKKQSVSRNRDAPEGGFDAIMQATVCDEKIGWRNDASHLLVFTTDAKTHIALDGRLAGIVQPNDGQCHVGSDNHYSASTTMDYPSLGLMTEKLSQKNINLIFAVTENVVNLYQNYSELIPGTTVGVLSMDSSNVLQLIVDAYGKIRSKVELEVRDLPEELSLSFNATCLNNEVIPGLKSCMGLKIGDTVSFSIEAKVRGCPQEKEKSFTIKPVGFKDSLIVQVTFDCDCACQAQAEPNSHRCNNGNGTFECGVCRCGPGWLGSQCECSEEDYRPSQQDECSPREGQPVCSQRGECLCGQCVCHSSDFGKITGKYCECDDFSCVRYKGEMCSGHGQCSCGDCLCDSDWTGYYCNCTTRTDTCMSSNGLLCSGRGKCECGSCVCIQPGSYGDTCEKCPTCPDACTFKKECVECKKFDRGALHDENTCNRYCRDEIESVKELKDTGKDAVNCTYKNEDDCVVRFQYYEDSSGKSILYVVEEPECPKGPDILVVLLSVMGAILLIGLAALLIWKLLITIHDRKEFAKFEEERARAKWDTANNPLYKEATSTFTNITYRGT
UniProt P08514, 32-887 limits assumed: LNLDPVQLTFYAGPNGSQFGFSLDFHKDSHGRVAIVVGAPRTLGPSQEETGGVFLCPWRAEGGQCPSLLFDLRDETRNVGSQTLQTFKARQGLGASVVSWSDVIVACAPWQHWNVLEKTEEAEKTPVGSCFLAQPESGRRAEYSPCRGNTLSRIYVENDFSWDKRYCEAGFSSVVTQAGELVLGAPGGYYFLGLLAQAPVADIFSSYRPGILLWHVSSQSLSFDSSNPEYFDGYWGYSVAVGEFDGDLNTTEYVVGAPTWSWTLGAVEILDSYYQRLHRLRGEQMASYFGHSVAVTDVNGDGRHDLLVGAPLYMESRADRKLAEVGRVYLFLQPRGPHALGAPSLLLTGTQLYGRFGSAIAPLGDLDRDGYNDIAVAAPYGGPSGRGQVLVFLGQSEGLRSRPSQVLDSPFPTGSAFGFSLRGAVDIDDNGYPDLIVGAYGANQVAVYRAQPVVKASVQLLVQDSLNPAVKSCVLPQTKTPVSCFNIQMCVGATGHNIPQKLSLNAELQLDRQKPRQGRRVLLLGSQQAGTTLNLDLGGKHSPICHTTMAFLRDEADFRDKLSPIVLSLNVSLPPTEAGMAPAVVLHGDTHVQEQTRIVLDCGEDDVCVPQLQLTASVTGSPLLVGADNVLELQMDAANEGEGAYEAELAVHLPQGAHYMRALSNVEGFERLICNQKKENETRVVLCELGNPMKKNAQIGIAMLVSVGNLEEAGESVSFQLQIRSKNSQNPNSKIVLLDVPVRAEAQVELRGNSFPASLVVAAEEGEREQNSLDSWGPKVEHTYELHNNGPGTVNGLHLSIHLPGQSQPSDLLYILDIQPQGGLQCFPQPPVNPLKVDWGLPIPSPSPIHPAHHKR
UniProt P08514, 891-1039 partner limits assumed: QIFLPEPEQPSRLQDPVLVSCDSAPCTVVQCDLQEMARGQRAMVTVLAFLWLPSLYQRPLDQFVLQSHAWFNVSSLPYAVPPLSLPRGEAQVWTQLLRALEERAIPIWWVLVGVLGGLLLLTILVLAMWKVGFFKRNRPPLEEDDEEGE
UniProt P06756, 31-889 limits assumed: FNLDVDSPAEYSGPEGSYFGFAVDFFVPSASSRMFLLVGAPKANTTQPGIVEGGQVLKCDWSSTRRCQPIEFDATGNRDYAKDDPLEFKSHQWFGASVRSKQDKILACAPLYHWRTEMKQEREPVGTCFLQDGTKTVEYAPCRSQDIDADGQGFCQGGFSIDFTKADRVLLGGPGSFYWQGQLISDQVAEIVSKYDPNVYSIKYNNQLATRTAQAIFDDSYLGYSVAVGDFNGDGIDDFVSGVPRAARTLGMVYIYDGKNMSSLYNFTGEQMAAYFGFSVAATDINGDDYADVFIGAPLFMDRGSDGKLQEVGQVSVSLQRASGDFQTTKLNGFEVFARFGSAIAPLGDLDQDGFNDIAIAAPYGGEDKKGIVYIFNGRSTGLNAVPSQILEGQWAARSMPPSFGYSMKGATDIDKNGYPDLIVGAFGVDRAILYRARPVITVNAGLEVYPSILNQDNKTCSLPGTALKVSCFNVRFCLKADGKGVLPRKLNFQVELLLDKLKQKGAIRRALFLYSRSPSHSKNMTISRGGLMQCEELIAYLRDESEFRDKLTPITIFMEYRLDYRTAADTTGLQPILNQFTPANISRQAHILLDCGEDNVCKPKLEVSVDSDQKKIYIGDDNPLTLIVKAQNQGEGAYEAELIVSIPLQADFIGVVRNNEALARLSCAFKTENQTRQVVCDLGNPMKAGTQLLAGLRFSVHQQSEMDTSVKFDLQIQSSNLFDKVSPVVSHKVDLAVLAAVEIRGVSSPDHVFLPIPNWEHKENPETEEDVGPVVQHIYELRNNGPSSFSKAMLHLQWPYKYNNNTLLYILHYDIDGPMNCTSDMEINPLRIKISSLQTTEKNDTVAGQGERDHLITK
UniProt P06756, 891-1048 partner limits assumed: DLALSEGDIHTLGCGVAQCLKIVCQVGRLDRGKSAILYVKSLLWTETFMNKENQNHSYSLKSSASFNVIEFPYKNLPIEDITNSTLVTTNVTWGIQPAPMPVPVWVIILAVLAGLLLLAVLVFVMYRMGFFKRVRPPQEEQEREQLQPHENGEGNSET

We go through ten compounds from patent US6552079B2, “Integrin antagonists” (Eli Lilly and Company, priority 1996, dated 2003).

Test [1] concerns ADP-induced aggregation of human platelets (PRP). Briefly: Platelet aggregation assay (Aggregation-Human/PRP/ADP). Particulars: read-out: PRP (IC50 μM); human platelet rich plasma, ADP 20 μM. The method, then: In addition to the ELISA integrin binding assays described above, the Aggregation-Human/PRP/ADP Assay is useful for evaluating therapeutic compounds.
Platelet rich plasma (PRP) is prepared from healthy human volunteers for use in determining inhibition of platelet aggregation by compounds. Blood was collected via a 21 gauge butterfly cannula, using a two-syringe technique into 1/10 volume of […] trisodium citrate.
Platelet rich plasma was prepared at room temperature by centrifugation of the citrated whole blood at 100×g for 15 minutes. The PRP contained approximately 200-400,000 platelets/μl. Platelet poor plasma was prepared by centrifugation of citrated whole blood at 12,000×g for 2 minutes.
Platelet aggregation was assayed in a Chrono-log whole blood aggregometer (Chrono-log Corporation, Havertown, Pa.) using the PRP prepared above according to the manufacturers directions. Inhibition of platelet aggregation was studied by adding varying amounts of test materials followed by adenosine diphosphate (ADP, 20 μM) to stirred human PRP. Specifically, the human PRP was incubated with the compound for 1-2 min. at 37° C. prior to addition of the aggregating agent ADP.

In a further test the target is GPIIb-IIIa (Homo sapiens, UniProt P05106+P08514). The test is described as follows: GPIIb-IIIa ELISA purified integrin binding assay (fibrinogen binding). The conditions noted are these: read-out: GPIIbIIIa ELISA (IC50 μM); inhibition of biotinylated fibrinogen binding to immobilized purified platelet GPIIb-IIIa. The method, then: (§1) In the following assays, GPIIb-IIIa and vitronectin receptor, αvβ3 were prepared in purified form, by methods described in Fitzgerald, L. A., et al., Anal Biochem (1985) 151: 169-177 and Smith, J. W., J. Biol Chem (1988) 263: 18726-18731 (the disclosure of which is incorporated herein by reference). GPIIb-IIIa or vitronectin receptor, αvβ3, are coated onto microtiter plates. The coated support is then contacted with fibrinogen for the GPIIb-IIIa assay, or is contacted with vitronectin for the vitronectin receptor, αvβ3 and with test materials and incubated for sufficient time to reach maximal ligand binding to immobilized integrins. The adhesive ligands fibrinogen or vitronectin were typically provided at a concentration of 2-50 nM and the test material can, if desired, be added at a series of diultions. Typical incubations were 2-4 hr at 25° C., the time and temperature being interdependent.
(§2) Purified platelet GPIIb-IIIa was prepared by Fitzgerald, L. A., et al., Anal Biochem 151:169-177 (1985). Vitronectin receptor, αvβ3, was prepared as described by Smith, J. W., J. Biol Chem (1988) 263: 18726-18731. After purification, the receptors were each stored in 0.1% Triton X-100 at 0.1-1.0 mg/ml.
(§3) The receptors were coated to the wells of 96-well flat-bottom enzyme-linked immunoassay (ELISA) plates (Linbro EIA-Plus microtiter plate, Flow Laboratories) after diluting 1:200 with a solution of 20 mM Tris-HCl, 150 mM NaCl, 1 mM CaCl2, pH 7.4 to reduce the Triton X-100 concentration to below its critical micellar concentration and adding an aliquot of 100 μl to each well. The wells were allowed to incubate overnight at 4° C., and then aspirated to dryness. Additional sites were blocked by the addition of bovine serum albumin (BSA) at 35 mg/ml in the above buffer for 2 hr at 30° C. to prevent non-specific binding. The wells were then washed once with binding buffer ([…] Tris-HCl, 100 mM NaCl, 2 mM CaCl2, 1 mg/ml BSA).
(§4) The corresponding ligands (fibrinogen, von Willebrand Factor, or vitronectin) were conjugated to biotin using commercially available reagents and standard protocols. The labeled ligands were added to the receptor-coated wells at a final concentration of 2-10 nM (100 μl/well) and incubated for 3 hr at 25° C. in the presence or absence of test samples. After incubation, the wells were aspirated to dryness and bound ligand containing biotin label was quantitated.
(§5) The bound protein was detected by the addition of anti-biotin antibody conjugated to alkaline phosphatase followed by addition of substrate (p-nitrophenyl […] phosphate), and determination of the optical density of each well at […].
On the technique in general: ELISA stands for enzyme-linked immunosorbent assay.

For test [2], the target named is vitronectin receptor, αvβ3 (Homo sapiens, UniProt P05106+P06756). The test is described as follows: αvβ3 ELISA purified integrin binding assay (vitronectin binding). Particulars: read-out: αvβ3 ELISA (IC50 μM); inhibition of biotinylated vitronectin binding to immobilized purified αvβ3. The method, then: as §1, §2, §3, §4, §5

Take `N=C(N)NCCCCCCCC(=O)NCC(NS(=O)(=O)c1ccccc1)C(=O)O` (stereo not drawn): the IC50 came to 0.17 µM in test [1], 0.02 µM at GPIIb-IIIa and 0.1 µM in test [2].

With `CCCCS(=O)(=O)NC(CNC(=O)CCNC(=O)CNC(=N)N)C(=O)O` (stereo not drawn), the IC50 was 120 µM in test [1], over 100 µM on GPIIb-IIIa and over 200 µM in test [2].

Regarding `CCCCS(=O)(=O)NC(CNC(=O)CCNC(=O)CCCCNC(=N)N)C(=O)O` (stereo not drawn), the IC50 in test [1] was 4.9 µM; on GPIIb-IIIa it was 1 µM; in test [2] it was 50 µM.

`O=C(CCNC(=O)C1CCNCC1)NCC(NS(=O)(=O)c1ccccc1)C(=O)O` (stereo not drawn): the IC50 in test [1] is 1.1 µM; on GPIIb-IIIa, 0.1 µM; in test [2], over 100 µM.

For `Cc1ccc(S(=O)(=O)NC(CNC(=O)CCCCCCCNC(=N)N)C(=O)O)cc1` (stereo not drawn), the IC50 was 0.85 µM in test [1], 0.1 µM on GPIIb-IIIa and 0.2 µM in test [2].

`N=C(N)NCCCCCCCC(=O)NCC(NS(=O)(=O)Cc1ccccc1)C(=O)O` (stereo not drawn): the IC50 in test [1] was found to be 5.7 µM; on GPIIb-IIIa, 0.6 µM; in test [2], 3 µM.

Consider `N=C(N)NCCC(=O)N1CCC(C(=O)NCC(NS(=O)(=O)c2ccccc2)C(=O)O)CC1` (stereo not drawn), for which the IC50 in test [1] was found to be 3.3 µM; at GPIIb-IIIa it was 2.5 µM; in test [2], 0.5 µM.

Take `CCCCS(=O)(=O)NC(CNC(=O)CCNC(=O)CCNC(=N)N)C(=O)O` (stereo not drawn): the figures for the IC50 (in test [1]; at GPIIb-IIIa; in test [2]) were 67.1 µM, 50 µM and over 100 µM, respectively.

Consider `N=C(N)NCCCC(=O)NCCC(=O)NCC(NS(=O)(=O)c1ccccc1)C(=O)O` (stereo not drawn), for which the IC50 in test [1] was found to be 0.26 µM; at GPIIb-IIIa it was 0.1 µM; in test [2] it was 0.3 µM.

Turning to `N=C(N)NCCCC(=O)N1CCC(C(=O)NCC(NS(=O)(=O)c2ccccc2)C(=O)O)CC1` (stereo not drawn), the IC50 in test [1] amounted to 1 µM; on GPIIb-IIIa it was 2.5 µM; in test [2], 5 µM.
